Source: ChEMBL document CHEMBL5512640, “Discovery of novel itaconimide-based derivatives as potent HDAC inhibitors for the efficient treatment of prostate cancer” (Eur J Med Chem, 2024)

Target: T1, Histone deacetylase 8 (Homo sapiens, UniProt Q9BY41)
T1 sequence (Q9BY41 whole entry): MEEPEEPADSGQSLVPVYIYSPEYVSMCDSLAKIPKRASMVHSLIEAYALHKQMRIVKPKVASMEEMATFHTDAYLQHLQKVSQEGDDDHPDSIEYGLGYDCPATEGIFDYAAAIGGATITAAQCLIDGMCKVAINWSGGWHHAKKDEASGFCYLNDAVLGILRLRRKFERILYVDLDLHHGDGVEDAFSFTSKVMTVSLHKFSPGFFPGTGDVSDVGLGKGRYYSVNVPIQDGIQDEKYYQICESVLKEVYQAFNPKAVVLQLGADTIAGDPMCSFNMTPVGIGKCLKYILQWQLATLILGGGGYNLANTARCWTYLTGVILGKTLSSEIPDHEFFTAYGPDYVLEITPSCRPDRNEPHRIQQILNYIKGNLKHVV
Test: Inhibition of human HDAC8 incubated for 10 mins followed by fluorogenic substrate addition by fluorescence based analysis

- IC50: 461 nM
SMILES: O=C(CCCCCCC(=O)Nc1ccccc1)NO [VORINOSTAT]
